Measurements taken from patent US20200010482A1, “INHIBITORS OF BETA SECRETASE” (Janssen Pharmaceutica NV, priority 2017, published 2020).

Amino acid sequences for entries named in this document (tags omitted). Residues count along the entry.
UniProt P56817, 46-501 limits assumed: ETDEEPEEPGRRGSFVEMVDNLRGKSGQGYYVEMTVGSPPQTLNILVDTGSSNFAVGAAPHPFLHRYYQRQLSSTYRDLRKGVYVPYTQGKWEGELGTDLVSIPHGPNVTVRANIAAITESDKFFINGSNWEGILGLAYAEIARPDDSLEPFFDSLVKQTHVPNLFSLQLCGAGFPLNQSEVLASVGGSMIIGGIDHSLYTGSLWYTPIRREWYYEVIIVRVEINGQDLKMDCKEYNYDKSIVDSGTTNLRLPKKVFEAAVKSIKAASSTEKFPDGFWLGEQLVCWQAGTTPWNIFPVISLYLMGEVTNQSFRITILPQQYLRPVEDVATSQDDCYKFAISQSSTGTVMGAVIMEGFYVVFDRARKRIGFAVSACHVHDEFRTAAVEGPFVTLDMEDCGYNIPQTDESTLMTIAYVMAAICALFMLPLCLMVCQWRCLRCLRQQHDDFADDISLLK
UniProt Q9Y5Z0, 63-518 limits assumed: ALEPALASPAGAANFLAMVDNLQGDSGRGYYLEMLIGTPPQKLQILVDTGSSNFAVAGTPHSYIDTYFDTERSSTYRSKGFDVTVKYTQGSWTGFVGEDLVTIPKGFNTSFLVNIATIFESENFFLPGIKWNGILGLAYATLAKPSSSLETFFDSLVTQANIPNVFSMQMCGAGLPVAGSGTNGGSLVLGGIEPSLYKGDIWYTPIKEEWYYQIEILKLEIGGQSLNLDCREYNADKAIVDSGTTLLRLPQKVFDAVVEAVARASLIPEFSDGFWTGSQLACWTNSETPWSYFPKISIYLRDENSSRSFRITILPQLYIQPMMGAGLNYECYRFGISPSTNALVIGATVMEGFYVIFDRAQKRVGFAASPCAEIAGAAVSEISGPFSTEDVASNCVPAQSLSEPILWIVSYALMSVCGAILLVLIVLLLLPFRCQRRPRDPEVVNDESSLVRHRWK

Assays:
BACE1 = BACE1 (Homo sapiens, UniProt P56817); assay: BACE1 biochemical FRET based assay; details: recombinant BACE1 0.04 μg/ml, 20 μM substrate, 450 min, pH 5.0
From the text: This assay is a Fluorescence Resonance Energy Transfer Assay (FRET) based assay. The substrate for this assay is an APP derived 13 amino acids peptide that contains the ‘Swedish’ Lys-Met/Asn-Leu mutation of the amyloid precursor protein (APP) beta-secretase cleavage site. This substrate also contains two fluorophores: (7-methoxycoumarin-4-yl) acetic acid (Mca) is a fluorescent donor with excitation wavelength at 320 nm and emission at 405 nm and 2,4-Dinitrophenyl (Dnp) is a proprietary quencher acceptor. […] Upon cleavage by BACE1, the fluorophore Mca is separated from the quenching group Dnp, restoring the full fluorescence yield of the donor. The increase in fluorescence is linearly related to the rate of proteolysis.
Briefly in a 384-well format recombinant BACE1 protein in a final concentration of 0.04 μg/ml is incubated for 450 minutes at room temperature with 20 μM substrate in incubation buffer (50 mM Citrate buffer pH 5.0, 0.05% PEG) in the presence of compound or DMSO. Next the amount of proteolysis is directly measured by fluorescence measurement (excitation at 320 nm and emission at 405 nm) at different incubation times (0, 30, 60, 90, 120 and 450 min). For every experiment a time curve (every 30 min between 0 min and 120 min) is used to determine the time where we find the lowest basal signal of the high control. The signal at this time (Tx) is used to subtract from the signal at 450 min. Results are expressed in RFU, as difference between T450 and Tx.
A best-fit curve is fitted by a minimum sum of squares method to the plot of % Controlmin versus compound concentration. From this an IC50 value (inhibitory concentration causing 50% inhibition of activity) can be obtained. • LC=Median of the low control values=Low control: Reaction without enzyme • HC=Median of the High control values=High Control: Reaction with enzyme
% Effect=100−[(sample−LC)/(HC−LC)*100]
% Control=(sample/HC)*100
% Controlmin=(sample−LC)/(HC−LC)*100

β-secretase II (BACE2) = β-secretase II (BACE2) (Homo sapiens, UniProt Q9Y5Z0); assay: Biochemical assay, automated (CyclOps), BACE2; details: automated CyclOps bioassay
Description: Unless otherwise indicated all biochemicals were purchased from Sigma-Aldrich Chemical Company, Poole, Dorset, U.K. and non-aqueous solvents, of analytical or higher grade, were purchased from ThermoFisher Scientific, Loughborough, U.K. MilliQ water (Elix 5 & MilliQ Gradient; Merck Millipore) was used as the base aqueous solvent to make up the biological buffers. Base assay buffer was prepared by adding a 50 mM solution of citric acid (1.00244; Merck Biosciences) to stirring solution of 50 mM trisodium citrate (1.06448; Merck Biosciences) until a final pH of 5.0 was achieved. […] All assays were routinely carried out in 384-well assay plates (Costar 4514; Corning Life Sciences) and incubated at 37±1° C. for 60 min. prior to reading the endpoint fluorescence intensity. The (7-methoxyl coumarin-4-yl)acetic acid based substrate β-secretase substrate VI (M2465; Bachem) was prepared as a 1 mM stock in 100% DMSO (D/4121/PB08; ThermoFisher). Assay buffer was prepared by adding DMSO to base buffer to a final concentration of 1% (vol./vol.). β-secretase I (18.64 μM; “BACE1”) and β-secretase II (4.65 μM; “BACE2”) were obtained from Janssen Pharmaceutica, Beerse, Belgium and were stored as frozen aliquots (˜20 μl) and thawed as required.
Typically 12.5 μl of assay buffer was dispensed to rows B to P of the assay plate. To row A was added 18.75 μl of test compound diluted appropriately in assay buffer. A 6.25 μl aliquot of sample was transferred from row A to row B and the sample mixed three times by pipette. The process was repeated down the plate and 6.25 μl of solution discarded at row N post-mix. Rows O and P were designated as the positive and negative controls. To row P was added 6.25 μl base buffer. To rows A to O was added 6.25 μl enzyme (freshly prepared 40 nM BACE1 or 40 nM BACE2) diluted in base buffer. To initiate the assay 6.25 μl of freshly prepared 80 μM substrate, made up by diluting the 1 mM in 100% DMSO solution into HPLC grade water (Optima W6-212; ThermoFisher), was added to all the wells. The assay plate was covered and incubated at 37±1° C. for 60 min. The fluorescence intensity of the wells was read at 360/405 nm (excitation/emission) utilising a nine reads per well protocol (50 ms integration; density of 3, 0.25 mm spacing; SpectraMAX Paradigm plate reader; TUNE cartridge; SoftMax Pro v 6.3 software; Molecular Devices UK Ltd., Wokingham, Berkshire, UK) and outputting the median value of the nine reads as a text file. Data analysis was carried out using Prism software v 6.3 (GraphPad Inc., San Diego, Calif., USA) using the non-linear regression analysis models supplied by the vendor. For IC50 determinations the four parameter logistic variable slope model was used to fit the raw fluorescence intensity data with the ‘bottom’ fixed to the negative control.
The CyclOps bioassay module consisted of a fraction collection station, a reagent station, liquid handling robotics, plate store and an integrated plate reader (SpectraMAX Paradigm, TUNE cartridge, SoftMax Pro v 6.3; Molecular Devices). The fraction collection station composed of a 384 well collection plate (P-384-240SQ-C; Axygen, Union City, Calif., USA) mounted on a H-portal carriage (Festo AG & Co. KG, Esslingen, Germany), a syringe drive and a two-way six port injection valve fitted with a 200 μl loop (VICI AG International, Schenkon Switzerland). The output of the injection valve was addressable to all the positions of a 384 well collection plate. The reagent station consisted of hydraulically cooled (10-12° C.) aluminium segments; each manufactured to house a SBS microtiter plate footprint. Independent addressable reagent stations were housed within these sections. Where required, custom aluminium housings were used to accommodate standard laboratory plastic ware (e.g. Eppendorf tubes, Falcon tubes, etc.). As and when required the reagent reservoirs were covered and the lids contained holes through which the Teflon-coated probe could access solutions. […]

**Q.** Which results are given for COc1ncc(-c2c(C)noc2C)c2c1C[C@]1(c3ccc(F)cc3F)N=C(N)SC[C@@H]1C2?
**A.** BIOCHEMICAL FRET BASED ASSAY pIC50 (BACE1): 7.83; AUTOMATED ASSAY BACE2 pIC50 (β-secretase II (BACE2)): 6.18

**Q.** How did the “BIOCHEMICAL FRET BASED ASSAY pIC50” value (BACE1) turn out when COc1ccccc1-c1cnc(OC)c2c1C[C@H]1CSC(N)=N[C@@]1(c1ccc(F)cc1F)C2 was run?
**A.** 7.3

**Q.** What about the “AUTOMATED ASSAY BACE2 pIC50” value (β-secretase II (BACE2)) of the same compound?
**A.** 6.24

**Q.** Which “BIOCHEMICAL FRET BASED ASSAY pIC50” value (BACE1; tested form: formate) does the source give for COc1ncc(-c2ccc(F)cc2C)c2c1C[C@]1(c3cc(OCC4CCOCC4)ccc3F)N=C(N)SC[C@@H]1C2 here?
**A.** 7.86

**Q.** What about the “AUTOMATED ASSAY BACE2 pIC50” value (β-secretase II (BACE2)) of the same compound?
**A.** 6.29

**Q.** For COc1ncc(-c2cc(C)nc3c2CCCC3)c2c1C[C@]1(c3ccc(F)cc3F)N=C(N)SC[C@@H]1C2, which “BIOCHEMICAL FRET BASED ASSAY pIC50” value (BACE1) is on record?
**A.** 6.6

**Q.** And the “AUTOMATED ASSAY BACE2 pIC50” value (β-secretase II (BACE2))?
**A.** 5.74

**Q.** Which “BIOCHEMICAL FRET BASED ASSAY pIC50” value (BACE1; tested form: formate) does the source give for COc1ncc(-c2c(C)noc2C)c2c1C[C@]1(c3cc(OCC4CC4)ccc3F)N=C(N)SC[C@@H]1C2 here?
**A.** 5.91

**Q.** What about the “AUTOMATED ASSAY BACE2 pIC50” value (β-secretase II (BACE2)) of the same compound?
**A.** 6.19

**Q.** What does the source list for COc1ccc(F)c(-c2cnc(OC)c3c2C[C@H]2CSC(N)=N[C@@]2(c2ccc(F)cc2F)C3)c1?
**A.** BIOCHEMICAL FRET BASED ASSAY pIC50 (BACE1; tested form: free base): 8.22; AUTOMATED ASSAY BACE2 pIC50 (β-secretase II (BACE2); tested form: free base): 6.68

**Q.** Which “BIOCHEMICAL FRET BASED ASSAY pIC50” value (BACE1; tested form: formate) does the source give for COc1ncc(-c2c(C)noc2C)c2c1C[C@]1(c3cc(OCc4ncccn4)ccc3F)N=C(N)SC[C@@H]1C2 here?
**A.** 7.44

**Q.** What about the “AUTOMATED ASSAY BACE2 pIC50” value (β-secretase II (BACE2)) of the same compound?
**A.** 6.02

**Q.** How did the “BIOCHEMICAL FRET BASED ASSAY pIC50” value (BACE1; tested form: formate) turn out when COc1ncc(-c2c(C)noc2C)c2c1C[C@]1(c3cc(OCC4CCOCC4)ccc3F)N=C(N)SC[C@@H]1C2 was run?
**A.** 6.94

**Q.** And the “AUTOMATED ASSAY BACE2 pIC50” value (β-secretase II (BACE2))?
**A.** 6.21
